The values that follow come from PubChem BioAssay AID487 (Columbia University Molecular Screening Center, 2006).

For orientation: inhibition means the change of the read-out against control, counted positive when it falls.

The structures appear in SMILES notation. The entries are a selection whose mix differs from that of the whole data set. Activity calls are given as the source filed them.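 How the source made its calls: active means visually confirmed hit in the image check and inhibition above 20%; inconclusive means visually confirmed hit but inhibition not above 20%; inactive means no visual hit in the image check.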

This experiment is described as follows: endothelial E-selectin expression blockers – imaging, HUVEC, immunofluorescence, MLSMR starter and 10KST1 sets, primary screen (AID 487).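 Further: signal is fraction of cell area covered by stained E-selectin grains.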 The conditions noted are these: HUVEC TNFalpha-induced E-selectin immunofluorescence imaging; at 2 µM; hits give high values.
For the compound `Fc1ccccc1NC1CCN(Cc2ccccc2)CC1`, the inhibition was inactive: -172%.
